System: CC1(C)S[C@@H]2[C@H](NC(=O)[C@H](N)c3ccccc3)C(=O)N2[C@H]1C(=O)O
Assay: purified protein
Details: 25 mM succinyl-CoA, 50 mM Tris-HCl, 30 °C, 2 mg/mL CsbC, ampicillin 0-8.1 mM, pH 8 in general assay

**Q.** Which Km does the source give for CsbC (Streptomyces sp. YIM 121038) here?
**A.** The Km was 470 µM.

From PMC9600172, “N-Succinyltransferase Encoded by a Cryptic Siderophore Biosynthesis Gene Cluster in Streptomyces Modifies Structurally Distinct Antibiotics” (mBio, 2022)
